Earlier results, collected in patent publication US5375693A (Sepracor, Inc., priority 1994, dated 1994).

Assays:
H-2 histamine receptor [1] = details: isolated guinea pig atria; cited from earlier work
H-1 histamine receptor [2] = details: cited from earlier work
H-2 histamine receptor [3] = details: guinea pig; cited from earlier work
H-1 histamine receptor [4] = details: Rhesus monkeys; cited from earlier work

CC(C)(C)c1ccc(C(O)CCCN2CCC(C(O)(c3ccccc3)c3ccccc3)CC2)cc1 (racemic) [Terfenadine]
chronotropic effect of histamine on atria (H-2 histamine receptor [1]): nor does it alter the chronotropic effect of histamine on atria
effect of histamine in the guinea pig isolated ileum (H-1 histamine receptor [2]): antagonizes the effect of histamine in the guinea pig isolated ileum
effect on histamine-induced gastric acid secretion (H-2 histamine receptor [3]): no effect on histamine-induced gastric acid secretion
histamine-induced whealing in the skin (H-1 histamine receptor [4]): suppresses histamine-induced whealing in the skin of Rhesus monkeys
